# From patent US20110224084A1, “Agricultural Compositions” (priority 2008, published 2011)
# Experiment: Solubility tests of tebuconazole in different solvents
# Assay type: physicochemical
# Details: solubility of tebuconazole in the named solvent; percent by weight of the biocide in 100 g of the solvent
substance,measurement,value
Benzoic acid mono propylene glycol esters [Example 1],Solubility,30 % b.w.
